Laboratory results as given in ChEMBL document CHEMBL1250418, “Identification of novel inhibitors for a low molecular weight protein tyrosine phosphatase via virtual screening” (Bioorg Med Chem, 2010).

Legend:
[1] = biological target: Low molecular weight phosphotyrosine protein phosphatase, ACP1 (Homo sapiens) (UniProt P24666); experiment: Effect on human cytoplasmic protein tyrosine phosphatase A assessed as change in enzyme activity at 100 uM at pH 7
[2] = biological target: Low molecular weight phosphotyrosine protein phosphatase, ACP1 (Homo sapiens) (UniProt P24666); experiment: Effect on human cytoplasmic protein tyrosine phosphatase B assessed as change in enzyme activity at 100 uM at pH 5
[3] = biological target: Low molecular weight phosphotyrosine protein phosphatase, ACP1 (Homo sapiens) (UniProt P24666); experiment: Effect on human cytoplasmic protein tyrosine phosphatase A assessed as change in enzyme activity at 100 uM at pH 5

## O=C(O)C(O)Cc1ccccn1 (stereo not drawn)
[1]
  Activity: -46%
[2]
  Activity: -6%
[3]
  Activity: 1%
